Format: in vivo
Settings: oral, mice, 200 mg/kg

Structure (SMILES): Cc1c(OCC(F)(F)F)ccnc1C[S+]([O-])c1nc2ccccc2[nH]1 (stereo not shown) [Compound 1]
- dead animals: no dead animals
